Reference: ChEMBL document CHEMBL5647683 (Oncogene, 2008)

Key:
[1] = Cmax in human A-431 cells xenografted athymic NMRI-nu/nu female mouse at 20 mg/kg, po administered daily for 25 days by LC-MS-MS method; type: ADME, organism-based; conditions: in vivo, time 25 day
[2] = Cmax in human SK-OV-3 cells xenografted athymic NMRI-nu/nu female mouse at 20 mg/kg, po administered daily for 25 days by LC-MS-MS method; type: ADME, organism-based; conditions: in vivo, time 25 day

Cmax [1]: 285 nM
Cmax [2]: 236 nM
Compound: CN(C)C/C=C/C(=O)Nc1cc2c(Nc3ccc(F)c(Cl)c3)ncnc2cc1O[C@H]1CCOC1 [AFATINIB]
